The values that follow come from paper PMC2848180 (American journal of obstetrics and gynecology, 2010).

The chains behind the UniProt entries cited, without tags or fusion partners. Where a name states a change or a piece, a line headed by the entry shows the natural chain unless it says otherwise.
UniProt P08183, whole entry: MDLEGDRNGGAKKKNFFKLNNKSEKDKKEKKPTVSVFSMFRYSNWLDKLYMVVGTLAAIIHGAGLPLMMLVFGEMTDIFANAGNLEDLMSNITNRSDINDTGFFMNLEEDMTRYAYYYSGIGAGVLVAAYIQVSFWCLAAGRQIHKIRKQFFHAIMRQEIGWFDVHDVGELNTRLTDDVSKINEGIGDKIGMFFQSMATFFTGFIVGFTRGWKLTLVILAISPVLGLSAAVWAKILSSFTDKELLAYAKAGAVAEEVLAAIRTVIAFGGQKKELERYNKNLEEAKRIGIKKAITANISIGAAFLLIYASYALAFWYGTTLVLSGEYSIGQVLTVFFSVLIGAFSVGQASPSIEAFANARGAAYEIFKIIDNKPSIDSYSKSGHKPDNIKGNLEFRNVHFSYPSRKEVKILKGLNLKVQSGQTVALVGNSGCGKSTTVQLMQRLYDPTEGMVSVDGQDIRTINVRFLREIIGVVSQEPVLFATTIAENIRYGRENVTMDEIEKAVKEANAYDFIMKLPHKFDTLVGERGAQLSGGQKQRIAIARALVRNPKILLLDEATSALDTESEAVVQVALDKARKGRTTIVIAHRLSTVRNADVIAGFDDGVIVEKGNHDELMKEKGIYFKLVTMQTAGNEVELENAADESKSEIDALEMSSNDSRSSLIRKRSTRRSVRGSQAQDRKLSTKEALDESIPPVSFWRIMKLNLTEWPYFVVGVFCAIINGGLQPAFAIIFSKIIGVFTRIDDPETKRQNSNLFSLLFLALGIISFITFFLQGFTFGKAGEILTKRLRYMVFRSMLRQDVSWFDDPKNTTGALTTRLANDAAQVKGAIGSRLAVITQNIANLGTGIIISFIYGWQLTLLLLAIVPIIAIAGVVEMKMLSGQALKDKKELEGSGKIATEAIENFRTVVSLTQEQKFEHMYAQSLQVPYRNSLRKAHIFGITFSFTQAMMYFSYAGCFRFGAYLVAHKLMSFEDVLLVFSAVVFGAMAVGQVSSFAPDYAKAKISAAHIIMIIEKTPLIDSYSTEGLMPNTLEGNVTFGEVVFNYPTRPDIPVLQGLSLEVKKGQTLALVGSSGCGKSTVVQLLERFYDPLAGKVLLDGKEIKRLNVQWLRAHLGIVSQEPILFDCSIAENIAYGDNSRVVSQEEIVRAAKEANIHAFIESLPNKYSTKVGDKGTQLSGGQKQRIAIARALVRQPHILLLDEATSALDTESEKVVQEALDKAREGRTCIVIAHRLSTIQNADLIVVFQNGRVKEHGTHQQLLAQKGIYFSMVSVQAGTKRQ
UniProt Q9UNQ0: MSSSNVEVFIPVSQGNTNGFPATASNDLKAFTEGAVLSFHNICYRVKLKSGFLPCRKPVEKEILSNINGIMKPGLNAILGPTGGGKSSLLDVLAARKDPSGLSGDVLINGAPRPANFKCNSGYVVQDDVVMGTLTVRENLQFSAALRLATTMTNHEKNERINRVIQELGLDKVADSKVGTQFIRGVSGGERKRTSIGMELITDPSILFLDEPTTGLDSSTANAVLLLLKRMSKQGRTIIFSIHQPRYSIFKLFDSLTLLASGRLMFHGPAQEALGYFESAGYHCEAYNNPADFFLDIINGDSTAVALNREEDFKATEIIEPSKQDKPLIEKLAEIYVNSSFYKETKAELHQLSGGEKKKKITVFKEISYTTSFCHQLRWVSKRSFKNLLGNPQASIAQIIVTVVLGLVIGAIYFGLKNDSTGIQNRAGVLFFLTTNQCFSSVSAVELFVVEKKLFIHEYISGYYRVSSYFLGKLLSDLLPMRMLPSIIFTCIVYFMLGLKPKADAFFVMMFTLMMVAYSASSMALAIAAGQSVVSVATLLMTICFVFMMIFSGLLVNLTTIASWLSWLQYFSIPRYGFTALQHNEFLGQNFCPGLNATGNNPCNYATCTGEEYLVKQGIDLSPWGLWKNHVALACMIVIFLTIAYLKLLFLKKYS
UniProt P33527: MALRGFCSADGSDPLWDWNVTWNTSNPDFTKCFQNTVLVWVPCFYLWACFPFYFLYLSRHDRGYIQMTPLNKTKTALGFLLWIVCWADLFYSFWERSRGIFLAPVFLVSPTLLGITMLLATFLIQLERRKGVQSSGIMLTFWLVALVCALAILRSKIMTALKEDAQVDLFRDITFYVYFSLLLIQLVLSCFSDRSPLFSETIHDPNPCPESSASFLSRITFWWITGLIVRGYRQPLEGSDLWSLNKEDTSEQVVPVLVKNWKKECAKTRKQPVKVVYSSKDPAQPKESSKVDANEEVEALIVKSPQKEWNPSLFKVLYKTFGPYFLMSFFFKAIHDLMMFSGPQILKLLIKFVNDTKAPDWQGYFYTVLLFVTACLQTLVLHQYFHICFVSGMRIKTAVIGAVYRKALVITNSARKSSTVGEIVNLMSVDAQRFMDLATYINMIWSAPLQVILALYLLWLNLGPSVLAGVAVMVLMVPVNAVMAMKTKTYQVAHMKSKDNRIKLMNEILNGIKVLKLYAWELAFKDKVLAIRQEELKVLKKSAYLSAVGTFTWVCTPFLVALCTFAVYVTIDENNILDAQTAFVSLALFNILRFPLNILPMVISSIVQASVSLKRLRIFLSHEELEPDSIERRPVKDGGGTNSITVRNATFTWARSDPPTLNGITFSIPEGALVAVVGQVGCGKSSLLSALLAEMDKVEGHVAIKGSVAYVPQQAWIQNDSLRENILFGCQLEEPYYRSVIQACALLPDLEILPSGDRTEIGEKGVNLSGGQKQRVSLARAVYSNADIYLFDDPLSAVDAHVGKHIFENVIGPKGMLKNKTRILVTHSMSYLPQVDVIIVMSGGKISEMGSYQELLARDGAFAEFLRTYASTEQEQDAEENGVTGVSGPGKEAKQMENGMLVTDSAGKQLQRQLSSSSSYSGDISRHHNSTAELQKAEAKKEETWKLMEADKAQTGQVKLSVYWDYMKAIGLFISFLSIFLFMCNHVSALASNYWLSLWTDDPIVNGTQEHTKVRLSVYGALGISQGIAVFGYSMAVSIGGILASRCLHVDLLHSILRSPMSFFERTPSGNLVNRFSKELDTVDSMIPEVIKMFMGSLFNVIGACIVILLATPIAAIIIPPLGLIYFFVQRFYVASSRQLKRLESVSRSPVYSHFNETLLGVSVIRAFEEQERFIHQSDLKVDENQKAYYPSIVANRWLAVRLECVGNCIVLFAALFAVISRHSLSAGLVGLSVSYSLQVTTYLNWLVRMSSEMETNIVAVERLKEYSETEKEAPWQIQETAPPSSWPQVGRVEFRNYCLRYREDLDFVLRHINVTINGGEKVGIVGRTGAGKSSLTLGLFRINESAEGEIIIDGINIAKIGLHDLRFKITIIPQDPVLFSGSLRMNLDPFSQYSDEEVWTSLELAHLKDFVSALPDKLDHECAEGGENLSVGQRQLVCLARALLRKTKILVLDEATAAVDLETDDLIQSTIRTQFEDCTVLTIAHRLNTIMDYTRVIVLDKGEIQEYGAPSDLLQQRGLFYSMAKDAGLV

Molecules are shown by their SMILES.

The target in series [1] is P-gp (Homo sapiens, UniProt P08183). To be noted: placental IOVs.
Series [2] has as its target BCRP (Homo sapiens, UniProt Q9UNQ0). To be noted: 100 nM drug, 25 nM KO143, placental IOVs, 1 min.
Series [3] concerns P-gp, BCRP, and MRP1. The settings on record: 100 nM drug, 1 μM KO143, placental IOVs, 1 min.
Series [4] deals with MRP1 (Homo sapiens, UniProt P33527). To be noted: 100 nM drug, 100 μM indomethacin, placental IOVs, 1 min.

For the compound `CN(CCOc1ccc(CC2SC(=O)NC2=O)cc1)c1ccccn1` (centres unmarked) [rosiglitazone], the “decrease of uptake on inhibition of P-gp by verapamil (transport by P-gp)” value in series [1] (100 nM drug, 600 μM verapamil, 1 min) came to 71 ± 26%. Besides, the “apparent Kt of ATP-dependent transport by P-gp” value in series [1] was found to be 84 ± 47 nM. For the same compound, the “decrease of uptake on inhibition of BCRP by 25 nM KO143 (transport by BCRP)” value in series [2] is on record as “no effect”. In series [3], the “decrease of uptake on total inhibition of P-gp, BCRP, and MRP1 using 1 μM KO143” value is on record as 72 ± 36%. Besides, in series [4], the “decrease of uptake on inhibition of MRP1 by indomethacin (transport by MRP1)” value is recorded as “no effect”.
